From patent US11168088B2 (SHANGHAI HAIYAN PHARMACEUTICAL TECHNOLOGY CO., LTD., priority 2016, dated 2021)

By UniProt entry, the sequences of proteins in these tests, tags left out. Residues count along the entry.
UniProt P11802, 2-303 limits assumed: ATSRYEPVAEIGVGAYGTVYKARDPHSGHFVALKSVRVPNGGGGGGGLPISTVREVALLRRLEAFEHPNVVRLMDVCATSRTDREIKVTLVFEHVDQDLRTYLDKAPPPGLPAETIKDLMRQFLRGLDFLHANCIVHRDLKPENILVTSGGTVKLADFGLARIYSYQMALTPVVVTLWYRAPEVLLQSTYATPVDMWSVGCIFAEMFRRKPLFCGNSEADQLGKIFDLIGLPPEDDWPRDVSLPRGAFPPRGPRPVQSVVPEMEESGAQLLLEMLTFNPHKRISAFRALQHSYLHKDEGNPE
UniProt Q00534, whole entry: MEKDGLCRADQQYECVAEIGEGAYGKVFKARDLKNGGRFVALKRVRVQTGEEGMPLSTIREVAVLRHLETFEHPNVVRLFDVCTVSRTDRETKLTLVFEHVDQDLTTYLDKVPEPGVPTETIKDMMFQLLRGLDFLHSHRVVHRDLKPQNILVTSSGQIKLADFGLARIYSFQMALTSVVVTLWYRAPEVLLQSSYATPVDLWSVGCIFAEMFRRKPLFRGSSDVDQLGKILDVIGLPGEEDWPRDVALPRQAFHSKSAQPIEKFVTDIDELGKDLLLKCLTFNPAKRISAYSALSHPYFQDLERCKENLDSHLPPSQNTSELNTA
UniProt P06493, whole entry: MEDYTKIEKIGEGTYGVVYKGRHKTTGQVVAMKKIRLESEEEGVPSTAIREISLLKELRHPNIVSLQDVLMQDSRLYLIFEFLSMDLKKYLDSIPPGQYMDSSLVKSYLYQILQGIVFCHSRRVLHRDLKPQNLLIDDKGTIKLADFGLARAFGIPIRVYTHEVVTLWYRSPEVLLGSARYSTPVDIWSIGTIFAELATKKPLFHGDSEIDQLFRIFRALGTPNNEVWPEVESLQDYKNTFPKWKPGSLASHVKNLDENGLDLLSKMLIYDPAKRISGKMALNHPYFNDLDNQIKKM
UniProt P14635, whole entry partner: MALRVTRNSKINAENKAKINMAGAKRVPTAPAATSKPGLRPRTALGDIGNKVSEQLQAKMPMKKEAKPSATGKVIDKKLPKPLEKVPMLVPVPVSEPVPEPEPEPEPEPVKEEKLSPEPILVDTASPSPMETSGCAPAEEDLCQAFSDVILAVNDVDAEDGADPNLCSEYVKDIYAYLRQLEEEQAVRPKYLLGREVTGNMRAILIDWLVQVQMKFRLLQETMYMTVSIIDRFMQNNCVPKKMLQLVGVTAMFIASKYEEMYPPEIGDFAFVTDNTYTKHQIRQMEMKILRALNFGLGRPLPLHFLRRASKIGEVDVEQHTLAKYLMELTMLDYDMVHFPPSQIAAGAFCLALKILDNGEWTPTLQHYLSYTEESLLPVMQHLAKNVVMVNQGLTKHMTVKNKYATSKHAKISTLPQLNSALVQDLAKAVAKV

How the values were obtained:
CDK4 = CDK4 (Homo sapiens (Human), UniProt P11802); test: In vitro kinase test (LANCE Ultra), CDK4; conditions: read-out: CDK4 IC50
CDK6 = CDK6 (Homo sapiens (Human), UniProt Q00534); test: In vitro kinase test (LANCE Ultra), CDK6; conditions: read-out: CDK6 IC50
CDK1 = CDK1 (Homo sapiens (Human), UniProt P06493); test: In vitro kinase test (LANCE Ultra), CDK1; conditions: read-out: CDK1 IC50
CDK2 = CDK2 (Homo sapiens (Human), UniProt P24941); test: In vitro kinase test (LANCE Ultra), CDK2; conditions: read-out: CDK2 IC50

Row | IC50 (CDK4) | IC50 (CDK6) | IC50 (CDK1) | IC50 (CDK2) | SMILES
1 | 23 nM | 30 nM |  |  | Cc1nc2c(n1C(C)C)-c1nc(Nc3ccc(N4CCNCC4)cn3)ncc1C2
2 | 8 nM | 132 nM |  |  | CC(C)c1[nH]nc2c1-c1nc(Nc3ccc(N4CCNCC4)cn3)ncc1C2
3 | 13 nM | 88 nM | 4390 nM | 4780 nM | CC(C)n1c(C2CC2)nc2c1-c1nc(Nc3ccc(N4CCNCC4)cn3)ncc1C2
4 | 15 nM | 201 nM | 7470 nM | 9460 nM | CCn1nc2c(c1C(C)C)-c1nc(Nc3ccc(N4CCNCC4)cn3)ncc1C2
